According to PMC2895947 (Neuropsychopharmacology : official publication of the …, 2010):

Assay: THC blood and brain levels, single bolus vs cumulative dosing
Format: in vivo
Conditions: THC 10 mg/kg cumulative; C57Bl/6J mice; mean ± SEM

CCCCCc1cc(O)c2c(c1)OC(C)(C)[C@@H]1CCC(C)=C[C@@H]21 [THC, Δ^9-tetrahydrocannabinol]
Brain THC level, cumulative dosing: 225 ± 32 ng/mL
